Cyclic peptide permeability, from CycPeptMPDB

Values of Marelli et al. 2015, doi:10.1002/chem.201501270, as listed in CycPeptMPDB.

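Lipid, pH, incubation time, direction and concentration are not recorded in the data file. The list need not hold all peptides of the study. Peptides that the database sets to -10, its floor, are left out.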

PAMPA is the parallel artificial membrane permeability assay, which has no cells and reads passive diffusion. Caco-2 values are permeabilities across monolayers of Caco-2 human intestinal cells. Permeability is in 10^-6 cm/s, converted from the database's log10 values; higher is more permeable.

Listed for C[C@@H]1NC(=O)[C@H](C)N(C)C(=O)[C@H](C)N(C)C(=O)[C@H](C)NC(=O)[C@H](C)N(C)C(=O)[C@@H](C)N(C)C1=O: PAMPA 0.1 × 10^-6 cm/s and Caco-2 0.79 × 10^-6 cm/s.
Listed for C[C@@H]1NC(=O)[C@H](C)NC(=O)[C@@H](C)N(C)C(=O)[C@H](C)NC(=O)[C@H](C)N(C)C(=O)[C@H](C)NC1=O: PAMPA 0.0063 × 10^-6 cm/s and Caco-2 0.17 × 10^-6 cm/s.
Listed for C[C@@H]1C(=O)N[C@H](C)C(=O)N(C)[C@@H](C)C(=O)N(C)[C@H](C)C(=O)N[C@H](C)C(=O)N(C)[C@H](C)C(=O)N1C: PAMPA 0.079 × 10^-6 cm/s and Caco-2 2.7 × 10^-6 cm/s.
Listed for C[C@@H]1C(=O)N[C@H](C)C(=O)N(C)[C@@H](C)C(=O)N[C@H](C)C(=O)N[C@H](C)C(=O)N[C@H](C)C(=O)N1C: PAMPA 0.005 × 10^-6 cm/s and Caco-2 3.6 × 10^-6 cm/s.
Listed for C[C@@H]1C(=O)N(C)[C@@H](C)C(=O)N[C@H](C)C(=O)N[C@H](C)C(=O)N[C@H](C)C(=O)N[C@H](C)C(=O)N1C: PAMPA 0.0063 × 10^-6 cm/s and Caco-2 2.4 × 10^-6 cm/s.
Listed for C[C@@H](O)[C@@H]1NC(=O)[C@H](CCCCN)N(C)C(=O)[C@@H](Cc2c[nH]c3ccccc23)N(C)C(=O)[C@H](Cc2ccccc2)NC(=O)[C@@H]2CCCN2C(=O)[C@H](Cc2ccccc2)N(C)C1=O: Caco-2 1.5 × 10^-6 cm/s.
Listed for C[C@H](O)[C@H]1NC(=O)[C@@H](CCCCN)N(C)C(=O)[C@H](Cc2c[nH]c3ccccc23)N(C)C(=O)[C@@H](Cc2ccccc2)NC(=O)[C@H]2CCCN2C(=O)[C@@H](Cc2ccccc2)N(C)C1=O: Caco-2 0.72 × 10^-6 cm/s.
Listed for C[C@@H]1NC(=O)[C@H](C)NC(=O)[C@@H](C)N(C)C(=O)[C@H](C)N(C)C(=O)[C@H](C)NC(=O)[C@H](C)NC1=O: PAMPA 0.005 × 10^-6 cm/s and Caco-2 0.15 × 10^-6 cm/s.